The test system of this data set is Balanus amphitrite cypris larvae. To be noted: read-out: LC50 (concentration in which 50% of the test larvae population was killed), 48 h.
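Note: larvae held in 24-well plates with compound in seawater, dark, 48 h, settled larvae (attached plus metamorphosed) and dead or missing larvae counted microscopically as percent of total per well.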

In the case of arsindoline A [Compound 6], the LC50 is more than 134 µM.
